Experimental findings from patent publication US4797280A, “Antibiotics produced by Kibdelosporangium aridum Shearer gen. nov., sp. nov. ATCC 39323” (SmithKline Beckman Corporation, priority 1986, dated 1989) are described below.

The test relates to rumen inoculum. In words: Rumen in vitro model. On the set-up: species or system steer.

Consider `CCCCCCCCCC(=O)N[C@H]1[C@H](Oc2c3cc4cc2Oc2c(Cl)cc(cc2Cl)[C@@H](O)[C@@H]2NC(=O)[C@H](NC(=O)[C@@H]4NC(=O)[C@H]4NC(=O)[C@H](NC(=O)[C@H](NC)c5ccc(O)c(c5)Oc5cc(O)c(Cl)c4c5)[C@H](O)c4ccc(c(Cl)c4)O3)c3ccc(O)c(c3)-c3c(O[C@H]4O[C@H](CO)[C@@H](O)[C@H](O)[C@@H]4O)cc(O)cc3[C@@H](C(=O)O)NC2=O)O[C@H](C(=O)O)[C@@H](O)[C@@H]1O` [AAD 216A], for which the VAL is, setting by setting: (0.5 ppm) 92% OF CONTROL; (5 ppm) 105% OF CONTROL. For the setting “5 and 50 ppm”, the “Propionate production in the rumen” value is “increase propionate production”.
